Tested on: MCF-7 human breast cancer tumors
Settings: mouse, in vivo

`O=P1(N(CCCl)CCCl)NCCCO1` (stereo not shown) [CPA, cyclophosphamide] was tested, and the tumor suppression was “effective for tumor suppression”.
